Key:
[1] = system: serum IgG isotypes; test: Serum total IgG isotypes by ELISA following IP immunization; format: in vivo, mice
Method: (§1) Multivalent LNnT or Lewis^γ were conjugated with HSA (LNnT-HSA and Le^y-HSA) by Accurate Chemical and Scientific Corporation (NY). In both neoglycoproteins, 13 molecules of sugar conjugated to 1 HSA molecule. As controls, HSA (Sigma Chemical Co., Mo.), HSA adsorbed to alum (Intergen Company, NY; HSA-alum), or Dulbecco's PBS (Gibco BRL, NY) were prepared for immunization. Groups of four to six mice were immunized intraperitoneally or subcutaneously with Ags (10 μg of HSA) or saline. First and second boosting immunization were performed in the same fashion 2 and 3 weeks later, respectively. Protein concentration was determined by bicinchoninic acid (BCA) assay (Pierce, Ill.).
Serum total IgG isotypes were also determined by ELISA. Plates were coated with 100 μl of 2 μg/ml rat anti-mouse IgG1, IgG2a, IgG2b, and IgG3 mAb (Pharmingen) overnight at 4° C. After washing and blocking described as above, 100 μl samples of serially-diluted serum or standard mouse IgG isotypes (Pharmigen) were added in duplicate wells and incubated for 2 hrs at 37° C. Thereafter, 100 μl peroxidase-conjugated polyclonal goat anti-mouse Ig (Pharmingen) diluted in 1/1000 were added and incubated for 1 hr at 37° C. After the washing, the reactions were developed and stopped as described above, and the absorbance was measured at 450 nm.

[2] = system: Ag-specific IgE and IgG; test: Antigen-specific serum IgE and IgG by ELISA following immunization; format: in vivo, mice
Method: as §1
Immunized mice were bled from the tail 10, 6, and 5 days following primary, first, and second boosting immunization, respectively. Total and HSA-specific IgE were determined by sandwich ELISA. In brief, ELISA plates (Corning Inc., NY) were coated overnight at 4° C. with 100 μl of 5 μg/ml rat anti-mouse IgE mAb (Biosource, CA) in carbonate-bicarbonate buffer, pH 9.6. After washing four times with PBS containing 0.05% Tween20 (PBS-T), plates were blocked with 200 μl PBS containing 10% FCS and 0.3% Tween20 for 2 hrs at 37° C. After washing as above, 100 μl samples of serially-diluted serum or standard mouse IgEmAb (Pharmingen, Calif.) were added in duplicate wells and incubated for 2 hrs at 37° C. Thereafter, 100 μl biotinylated anti-mouse IgEmAb (0.5 μg/ml, Pharmingen) or biotinylated HSA (1 μg/ml) were added to detect total IgE and HSA-specific IgE, respectively. After 2 hrs incubation at 37° C., plates were washed and 100 μl peroxidase-conjugated streptavidin (Sigma) diluted 1/1000 was added to each well and incubated for 1 hr at 37° C. Finally plates were washed eight times, the reactions were developed by addition of tetramethyl-benzidine substrate (Kirkegaard and Perry Laboratories, Gaithersburg, Md.) and stopped by addition of phosphoric acid (0.4M). The absorbance was measured at 450 nm in UVMax automated plate reader (Molecular Devices Corp., Menlo Park, Calif.). For biotinylation, HSA (2 mg/ml) in sodium bicarbonate buffer pH 8.5 was incubated with biotin (long arm) N-hydroxy succumide ester (Vector Lab., CA) for 2 hrs at room temperature, stopped the reaction by addition of 5 μl ethanolamine, and dialyzed overnight with PBS/0.05% sodium azide.
Ag-specific IgG ELISA were determined. […] Finally the absorbance at 450 nm was measured using a UVMax automatic microplate reader. Results were expressed as endpoint titers where the endpoint was determined as the final serum dilution which yields a higher absorbance than twice of the background absorbance. Optimum dilutions of anti-mouse IgG mAb-horseradish peroxidase-labeled conjugates were determined to be 1/1000. […]

[3] = system: splenocytes; test: Proliferative responses of splenocytes (3H thymidine); format: cell-based, mice
Method: Groups of mice were killed by carbon dioxide 5 days following second boosting immunization. Spleens were removed aseptically and proliferation assays were performed as described previously (Velupillai, P. et al. (1997) J. Immunol. vol. 158 pp. 338-344). In brief, cell suspensions were prepared in RPMI 1640 supplemented with 10% FCS (Gibco), 2 mM L-glutamine, 5×10^−5 M 2-mercaptoethanol, 100 Unit/ml penicillin, and 100 μg/ml streptomycin (Sigma). Red blood cells were removed by incubation in Boyle's solution, and 2.5×10^6 cells per ml were added to 96-well flat-bottom tissue culture plates (Corning) in triplicate for 72 hrs at 37° C., 5% C02 in air, with 2 μg/ml ConA (Vector), 10 μg/ml HSA or LNnT-HSA. For the final 8 hrs, cells were incubated with 1 μCi ^3H thymidine (Amersham Life Science Inc., IL) and then harvested onto filter paper for scintillation counting.

[4] = BALB/C mice IP immunized, vs saline or HSA alone

LNnT-HSA: Multivalent lacto-N-neotetraose conjugated with human serum albumin; 13 molecules of sugar per HSA molecule
serum IgG1 [1, 4]: significantly increased | serum amount of other IgG isotypes [1, 4]: not significantly different | serum IgG3 ([1]; mice IP immunized, compared with controls): same amount | IgG or IgE specific for LNnT-HSA ([2]; BALB/C mice IP immunized, compared with the controls): did not produce significant amounts | HSA-specific IgE and IgG in sera ([2]; BALB/C mice immunized IP): not detected | IgE or IgG against HSA ([2]; CBA/J and C57BL/6 mice): did not elicit | specific IgE signal against Gal (β1-4) GlcNAc and Gal (β1-4) Glc ([2]; biotinylated sugars instead of biotinylated HSA in specific IgE ELISA): not detected | proliferative response of splenocytes with restimulation of LNnT-HSA ([3]; BALB/C mice immunized IP): significantly enhanced | proliferative response of splenocytes without restimulation ([3]; BALB/C mice immunized IP, compared to control mice): significant responses | proliferative response of splenocytes in ConA stimulation ([3]; BALB/C mice immunized IP, vs controls): significantly more | in vitro proliferative responses to LNnT-HSA ([3]; splenocytes of mice IP immunized with HSA or saline, 10 μg/ml, compared to HSA or unrestimulation): moderate but significant

From US20020142945A1, “Immunomodulatory methods using carbohydrate antigens” (President and Fellows of Harvard College, priority 1998, published 2002)
